Rows were chosen to be rich in hits. Some 1.5% of all compounds tested hit in one or more screens of this group.
miR122 inh – miR-122 Renilla sensor signal increase in Huh7, primary screen, miR-122 inhibitor project, cell-based, single point, plate reader | Huh7 miR-122 Renilla luciferase sensor, 48 h; neutral wells = 0, positive control = 100 | activation (reporter increase), % at 12.5 µM | actives 0.3% (n = 340,000);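 active means mean replicate activation score at least 90 and every replicate individually at or above 90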;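 further: higher luciferase means less miR-122 activity so hits act as miR-122 inhibitors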
UUG fidelity – alters start codon recognition fidelity in yeast; S. cerevisiae UUG-firefly luciferase reporter, luminescence/redox ratio; activity score, % at 18.7 µM; actives 0.13% (n = 350,000); AID 602363;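 active = replicate mean at a twofold rise or more, about +100% in these data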;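 also: firefly luciferase made from a UUG start codon reports start codon fidelity; reporter light over untreated wells divided by growth signal over untreated wells; some hits fall short of that in this replicate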
PGC1a acetyl inh – inhibitors of PGC1a acetylation signal, primary screen, cell-based, U2OS, AlphaScreen, inhibitor mode; AlphaScreen anti-acetyl-lysine; with virally co-expressed GCN5 acetyltransferase; inhibition, % at 15.6 µM; actives 0.17% (n = 350,000); AID 651687, 2012;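 active means every replicate shows inhibition of at least 40%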;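 further: 0% = neutral control wells and 100% = positive control wells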
HIV Env fusion – inhibitors of HIV-1 Env-driven cell-cell fusion, primary screen, HeLa-JRFL effector, CEM21 target cells, luciferase | AID 651610, 2012 | inhibition, % at 12.3 µM | actives 1.1% (n = 360,000);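 active means mean replicate inhibition score of at least 50 and every replicate individually at or above 50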;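 further: 0% = plate neutral controls and 100% = maraviroc near 300 nM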
Cneo AK release – Cryptococcus neoformans cell lysis inducers, primary screen, AK release luminescence, single concentration; C. neoformans lysis, adenylate kinase release luminescence, 4 h; normalised: neutral wells 0, clomiphene wells 100; lysis activity, % at 15 µM; actives 0.2% (n = 360,000); AID 651654, 2012;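 active means mean lysis activity across replicates of at least 80%, whatever share of replicates individually reach that level; inactive means mean lysis activity below 80%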
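Material: C. neoformans cells | Amount: Yeast cell density of 5 × 10^6 cells/mL | Medium: Fresh YPD growth medium | Dosing: Single dose | Times: Static 4 h at 37 °C with compound, 1 h detection | Detection: AK luminescence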
FN deposit inh – inhibitors of fibronectin matrix deposition, primary screen, AH1F cells, Alexa488-fibronectin fluorescence, plate reader. inhibition, % at 12.6 µM. AH1F fibroblasts, overnight. AID 743247, 2014. actives 0.086% (n = 350,000);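 active means mean inhibition across replicates of 30% or more, regardless of how many single replicates reach that level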;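 further: positive control wells lacked labelled fibronectin entirely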
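Material: AH1F fibroblast monolayer depositing Alexa488-labelled fibronectin into matrix / Amount: 10000 AH1F cells per well / Signal: fluorescence 485/525 nm / Medium: DMEM, 2% serum / Compound: single dose, pinned / Incubation: 1 h cell adhesion before compound, then overnight fibronectin incubation / Reagent: Alexa488-FN, 24 nM final / Read-out: inhibition of fibronectin deposition signal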
Numbers without * were called inactive; [ ] = dose if it differs, or a comment.

Results for CN(C(=O)CSc1nnc(-c2ccc(OC(F)F)cc2)n1N)C1CCS(=O)(=O)C1 (stereo not given) ?
miR122 inh: -1.0; PGC1a acetyl inh: 0.9; HIV Env fusion: -3.2; FN deposit inh: 7.8

Results for COc1ccc(NC(=O)Nc2ccc3c(c2)C(=O)N([C@H](C)CO)C[C@H](C)[C@@H](CN(C)Cc2ccc4c(c2)OCO4)O3)cc1 ?
miR122 inh: 4.8[16.7 µM]; UUG fidelity: 1.9; PGC1a acetyl inh: 2.1; HIV Env fusion: -2.3[16.7 µM]; Cneo AK release: -8.1; FN deposit inh: -1.4

Results for O=C(N/N=C/c1ccc(-n2ccnc2)cc1)c1cccs1 ?
miR122 inh: -0.2; UUG fidelity: -8.4; PGC1a acetyl inh: 5.1; HIV Env fusion: 75.4*; Cneo AK release: -0.9

Results for COCCN=c1scc(C)n1/N=C/C1CC2C=CC1C2 (stereo not given) ?
HIV Env fusion: 63.1*; FN deposit inh: 5.8

How did CC(C)(C)c1ccc(C2CC2C(=O)N/N=C\c2ccc[nH]2)cc1 (stereo not given) do in these assays?
miR122 inh: -21.0; PGC1a acetyl inh: 36.3; HIV Env fusion: 98.4*; FN deposit inh: -1.6

Results for Cc1sc2nc(CSCC(=O)Nc3ccc(C(F)(F)F)cc3)[nH]c(=O)c2c1C ?
UUG fidelity: -6.9; HIV Env fusion: 77.8*; Cneo AK release: -1.3; FN deposit inh: -3.7

How did Cc1sc2nc(CSCC(=O)Nc3c(F)cccc3F)[nH]c(=O)c2c1C do in these assays?
miR122 inh: 3.6; UUG fidelity: -14.5; PGC1a acetyl inh: 4.7; Cneo AK release: 3.3; FN deposit inh: 4.7

What do the screens show for `COc1cc(C(CCN2CCCC(C)C2)c2c(OC)cc(OC)c3c(-c4ccccc4)cc(=O)oc23)cc(OC)c1OC` (stereo not given)?
miR122 inh: 21.1; UUG fidelity: 7.5; PGC1a acetyl inh: -28.5; Cneo AK release: 0.3

Results for COc1ccc(C(CC(=O)N2CCCC2)c2c(OC)cc(OC)c3c(-c4ccccc4)cc(=O)oc23)cc1 (stereo not given) ?
miR122 inh: 67.3; UUG fidelity: -9.6; PGC1a acetyl inh: -2.9; HIV Env fusion: 7.2; Cneo AK release: 1.4; FN deposit inh: 2.5

Results for CCN(CC)C(=O)CC(c1ccc(N(C)C)cc1)c1c(OC)cc(OC)c2c(-c3ccccc3)cc(=O)oc12 (stereo not given) ?
miR122 inh: 99.1*; UUG fidelity: -13.0; PGC1a acetyl inh: -20.9; HIV Env fusion: 10.7; Cneo AK release: 2.4; FN deposit inh: -0.3

How did COc1ccc(C(CC(=O)N2CCCC(C)C2)c2c(OC)cc(OC)c3c(-c4ccccc4)cc(=O)oc23)cc1 (stereo not given) do in these assays?
miR122 inh: 92.1*; UUG fidelity: -13.4; PGC1a acetyl inh: -5.2; HIV Env fusion: 40.5; Cneo AK release: -4.6; FN deposit inh: -1.2

What do the screens show for `CCN(CC)C(=O)CC(c1ccc(N(C)C)cc1)c1c(OC)cc(OC)c2ccc(=O)oc12` (stereo not given)?
miR122 inh: 3.2; UUG fidelity: -12.1; PGC1a acetyl inh: 16.2; HIV Env fusion: -4.1; Cneo AK release: -0.9; FN deposit inh: 8.3

What do the screens show for `COc1cc(OC)c2ccc(=O)oc2c1C(CC(=O)N1CCOCC1)c1ccc(N(C)C)cc1` (stereo not given)?
miR122 inh: -2.9; UUG fidelity: -4.8; HIV Env fusion: 15.0; Cneo AK release: 0.3; FN deposit inh: 31.4*

Results for COc1cc(C(CCN2CCCCC2)c2c(OC)cc(OC)c3c(-c4ccccc4)cc(=O)oc23)cc(OC)c1OC (stereo not given) ?
miR122 inh: 33.9; UUG fidelity: 18.1; PGC1a acetyl inh: -31.5; HIV Env fusion: -26.5; Cneo AK release: 2.1; FN deposit inh: 30.3*

What do the screens show for `CC(=O)NCc1c(Cl)cccc1-n1cccc1`?
miR122 inh: 11.5; UUG fidelity: -12.7; PGC1a acetyl inh: -0.7; HIV Env fusion: -60.5; FN deposit inh: -7.1

Results for COc1ccc(NC(=O)C2CCN(c3nc(C)cc(C)n3)CC2)cc1 ?
miR122 inh: -3.8; UUG fidelity: -27.9; PGC1a acetyl inh: 12.6; HIV Env fusion: -60.1; Cneo AK release: 1.9; FN deposit inh: -3.0

How did COc1ccc(NC(=O)C2CCN(c3nc(C)nc4c3CCC4)CC2)cc1 do in these assays?
miR122 inh: -7.6; UUG fidelity: -35.2; HIV Env fusion: 54.2*; Cneo AK release: 7.2; FN deposit inh: -1.1

What do the screens show for `Cc1ccccc1NC(=S)NNC(=O)c1ccco1`?
miR122 inh: -0.6; UUG fidelity: -27.7; HIV Env fusion: -13.4; Cneo AK release: -1.2; FN deposit inh: 8.4

How did O=C(O/N=C(/c1ccccc1)c1ccncc1)c1cccc(F)c1 do in these assays?
HIV Env fusion: -15.9; FN deposit inh: -4.7

Results for Cc1cccc(NS(=O)(=O)c2csc(C(N)=O)c2)c1 ?
miR122 inh: 110.6*; UUG fidelity: -1.4; PGC1a acetyl inh: 5.8; HIV Env fusion: 5.4; Cneo AK release: -1.0; FN deposit inh: 3.2

Reprinted at random: 3 compounds from above.
Results for Cc1sc2nc(CSCC(=O)Nc3ccc(C(F)(F)F)cc3)[nH]c(=O)c2c1C ?
UUG fidelity: -6.9; HIV Env fusion: 77.8*; Cneo AK release: -1.3; FN deposit inh: -3.7

How did COc1ccc(NC(=O)C2CCN(c3nc(C)nc4c3CCC4)CC2)cc1 do in these assays?
miR122 inh: -7.6; UUG fidelity: -35.2; HIV Env fusion: 54.2*; Cneo AK release: 7.2; FN deposit inh: -1.1

Results for Cc1cccc(NS(=O)(=O)c2csc(C(N)=O)c2)c1 ?
miR122 inh: 110.6*; UUG fidelity: -1.4; PGC1a acetyl inh: 5.8; HIV Env fusion: 5.4; Cneo AK release: -1.0; FN deposit inh: 3.2

(listing goes on)
Results for CC(=O)c1cccc(NS(=O)(=O)c2csc(C(N)=O)c2)c1 ?
miR122 inh: 60.9; UUG fidelity: -18.9; PGC1a acetyl inh: 1.3; HIV Env fusion: 6.0; Cneo AK release: -0.1; FN deposit inh: 0.7

Results for COc1cc(NS(=O)(=O)c2csc(C(N)=O)c2)cc(OC)c1 ?
miR122 inh: 99.3*; UUG fidelity: -22.1; PGC1a acetyl inh: -9.5; HIV Env fusion: 23.0; Cneo AK release: -1.3; FN deposit inh: 3.8

What do the screens show for `CN[C@H]1CCc2cc(OC)c(OC)c(OC)c2-c2ccc(N(C)CC(OC)OC)c(=O)cc21`?
miR122 inh: 130.2*; UUG fidelity: 9.2; PGC1a acetyl inh: 4.8; HIV Env fusion: -118.1; Cneo AK release: 0.8; FN deposit inh: 0.5

What do the screens show for `CCCCOc1ccc(C2=NNC(=O)CC2)cc1`?
HIV Env fusion: -3.6; FN deposit inh: -0.7

Results for COc1ccc2nc(NC(=O)C3CCN(S(=O)(=O)c4cccc5nsnc45)CC3)sc2c1 ?
miR122 inh: 14.6; UUG fidelity: -10.4; PGC1a acetyl inh: 1.9; HIV Env fusion: 80.5*; Cneo AK release: 1.3; FN deposit inh: 13.8

Results for Cc1cccc(NC(=O)C2CCN(S(=O)(=O)c3cccc4nsnc34)CC2)n1 ?
miR122 inh: 7.9; UUG fidelity: 9.7; PGC1a acetyl inh: -17.4; HIV Env fusion: 16.5; Cneo AK release: -0.9; FN deposit inh: 10.1

High-throughput results from PubChem BioAssay.
